The experiment deals with Tau0N4R-TM-tGFP U2OS cells. The experiment in a line: Tau phosphorylation. To be noted: 0.5–10 μM, 6 hrs.

For the molecule `c1ccc(CNc2nc(Nc3cc(C4CC4)[nH]n3)c3sccc3n2)cc1` [Compound 4, N2-benzyl-N4-(5-cyclopropyl-1H-pyrazol-3-yl)thieno[3,2-d]pyrimidine-2,4-diamine], the “effect on bundle formation over concentration range” value is reported as “dose-dependent effect”.

These data come from article PMC9704499 (European journal of medicinal chemistry, 2021).
